One substance from patent publication US9738720B2, “Monoclonal antibodies against HER2 epitope and methods of use thereof” (Mersana Therapeutics, Inc., priority 2014, dated 2017) can be followed below.

Experiment [1] concerns TOV21G cells. Description: Cytotoxicity assay (CellTiter-Glo), TOV21G. In kind it is cell-based, human. The note with it: 72 hours or 6 days.
The test system of experiment [2] is BT474 cells. Description: Cytotoxicity assay (CellTiter-Glo), BT474. The note with it: 72 hours or 6 days. In kind it is cell-based, human.
In experiment [3] the test system is NCI-N87 cells. Nature of the experiment: Cytotoxicity assay (CellTiter-Glo), NCI-N87. In kind it is cell-based. The note with it: 72 hours or 6 days.
Experiment [4] has as its system MDA-MB-231 cells. Nature of the experiment: Cytotoxicity assay (CellTiter-Glo), MDA-MB-231. In kind it is cell-based, human. The settings on record: 72 hours or 6 days. The protocol: (§1) HER2-(EG2-MI-(10 kDa PHF-BA-(AF-HPA-Ala))) conjugates were evaluated for their antiproliferation properties in tumor cell lines in vitro using Cell Titer-Glo (Promega Corp). JIMT-1(HER2 medium expressing cells, DSMZ, Braunschweig, Germany, Cat.# ACC589), MDA-MB-361 (HER2 medium expressing human breast cancer cells, ATCC, Cat.# HTB-27), MDA-MB-453 cells (triple negative breast cancer cell line, ATCC, Cat.# HTB-131), were cultured in DMEM media (ATCC, Manassas, Va., Cat.#30-2002) with 10% FBS (Gibco®, Life Technologies, Grand Island, N.Y., Cat.#16140-071). NCI-H522 (non-small cell lung carcinoma cell line, not amplified, ATCC, Cat.# CRL-5810), and NCI-H2170 (non-small cell lung carcinoma cell line, ATCC, Cat.# CRL-5928) cells were cultured in RPMI-1640 medium (ATCC, Cat.#30-2001). […]
(§2) For the cytotoxicity assay, cells were seeded at a density of 3000 cells per well in 96 well plates and allowed to attach during overnight incubation at 37° C. in the presence of 5% CO2. […] Cell survival was measured using CellTiter-Glo® Luminescent Cell Viability Assay (Promega, Madison, Wis.) as described in the kit instructions. Cell viability was normalized to untreated control and expressed as a percentage. The values were plotted and IC50 values calculated with Graphpad Prism software (San Diego, Calif.) using 4 parameter, variable slope, dose response curve fitting algorithm.

Experiment [5] relates to SHP-77 cells. Description: Cytotoxicity assay (CellTiter-Glo), SHP-77. In kind it is cell-based, human. The note with it: 72 hours or 6 days.
Experiment [6] deals with CALU3 cells. Nature of the experiment: Cytotoxicity assay (CellTiter-Glo), CALU3. In kind it is cell-based, human. The settings on record: 72 hours or 6 days.
Experiment [7] relates to A549 cells. Nature of the experiment: Cytotoxicity assay (CellTiter-Glo), A549. In kind it is cell-based, human. The note with it: 72 hours or 6 days.
The test system of experiment [8] is HCC38 cells. Description: Cytotoxicity assay (CellTiter-Glo), HCC38. In kind it is cell-based, human. The note with it: 72 hours or 6 days.
The subject of experiment [9] is ZR75-1 cells. Nature of the experiment: Cytotoxicity assay (CellTiter-Glo), ZR75-1. In kind it is cell-based, human. The note with it: 72 hours or 6 days.
Experiment [10] deals with CAMA-1 cells. Description: Cytotoxicity assay (CellTiter-Glo), CAMA-1. In kind it is cell-based, human. The settings on record: 72 hours or 6 days. The protocol:
(§3) HER2-(EG2-MI-(10 kDa PHF-BA-(AF-HPA-Ala))) conjugates were evaluated for their antiproliferation properties in tumor cell lines in vitro using Cell Titer-Glo (Promega Corp). JIMT-1(HER2 medium expressing cells, DSMZ, Braunschweig, Germany, Cat.# ACC589), MDA-MB-361 (HER2 medium expressing human breast cancer cells, ATCC, Cat.# HTB-27), MDA-MB-453 cells (triple negative breast cancer cell line, ATCC, Cat.# HTB-131), were cultured in DMEM media (ATCC, Manassas, Va., Cat.#30-2002) with 10% FBS (Gibco®, Life Technologies, Grand Island, N.Y., Cat.#16140-071). NCI-H522 (non-small cell lung carcinoma cell line, not amplified, ATCC, Cat.# CRL-5810), and NCI-H2170 (non-small cell lung carcinoma cell line, ATCC, Cat.# CRL-5928) cells were cultured in RPMI-1640 medium (ATCC, Cat.#30-2001). NCI-H1581 (non-small cell lung carcinoma medium expressing cell line, not amplified, ATCC, Cat.# CRL-5878) cells were cultured in DMEM:F12 medium (ATCC, Cat.#30-2006). SNU5 (gastric carcinoma cell line, not amplified, ATCC, Cat.# CRL-5973) was cultured in Iscove's Modified Dulbecco's Medium (Invitrogen Life Technologies, Cat.#12440053) with 20% FBS. OVCAR3 (ovarian adenocarcinoma cell line, not amplified, ATCC, Cat.# HTB-161) was cultured in RPMI medium with 20% FBS. […] CAMA-1 (human breast cancer cell line, not amplified, ATCC, Cat.# HTB-21), was cultured in 90% ATCC-formulated Eagle's Minimum Essential Medium. ZR75-1 (human breast cancer cell line, not amplified, ATCC, Cat.# CRL-1500), was cultured in RPMI-1640 Medium. […]
as §2

Experiment [11] concerns HCC70 cells. Nature of the experiment: Cytotoxicity assay (CellTiter-Glo), HCC70. The note with it: 72 hours or 6 days. In kind it is cell-based, human. The method, then: as §1, §2
The subject of experiment [12] is SNU5 cells. Description: Cytotoxicity assay (CellTiter-Glo), SNU5. In kind it is cell-based. The note with it: 72 hours or 6 days.
Experiment [13] deals with NCI-H1781 cells. Nature of the experiment: Cytotoxicity assay in a cell line with a mutant HER2 (CellTiter-Glo), NCI-H1781. In kind it is cell-based, human. The note with it: 72 hours.
The subject of experiment [14] is NCI-H460 cells. Nature of the experiment: Cytotoxicity assay (CellTiter-Glo), NCI-H460. In kind it is cell-based, human. The note with it: 72 hours or 6 days. The method, then: as §1, §2
Experiment [15] concerns NCI-H2122 cells. Nature of the experiment: Cytotoxicity assay (CellTiter-Glo), NCI-H2122. The note with it: 72 hours or 6 days. In kind it is cell-based, human. The method, then: as §1, §2
Experiment [16] deals with OVCAR3 cells. Description: Cytotoxicity assay (CellTiter-Glo), OVCAR3. The settings on record: 72 hours or 6 days. In kind it is cell-based. The method, then:
as §1, §2

In experiment [17] the test system is HCC1187 cells. Nature of the experiment: Cytotoxicity assay (CellTiter-Glo), HCC1187. In kind it is cell-based, human. The settings on record: 72 hours or 6 days. The protocol: as §3, §2
Experiment [18] has as its system MDA-MB-453 cells. Nature of the experiment: Cytotoxicity assay (CellTiter-Glo), MDA-MB-453. The note with it: 72 hours or 6 days. In kind it is cell-based.
Experiment [19] has as its system T47D cells. Nature of the experiment: Cytotoxicity assay (CellTiter-Glo), T47D. In kind it is cell-based, human. The settings on record: 72 hours or 6 days.
In experiment [20] the test system is KATOIII cells. Nature of the experiment: Cytotoxicity assay (CellTiter-Glo), KATOIII. The note with it: 72 hours or 6 days. In kind it is cell-based, human.
The test system of experiment [21] is MKN45 cells. Nature of the experiment: Cytotoxicity assay (CellTiter-Glo), MKN45. In kind it is cell-based, human. The note with it: 72 hours or 6 days.
Experiment [22] concerns NCI-H2170 cells. Nature of the experiment: Cytotoxicity assay (CellTiter-Glo), NCI-H2170. The note with it: 72 hours or 6 days. In kind it is cell-based.
Experiment [23] deals with MDA-MB-175VII cells. Nature of the experiment: Cytotoxicity assay (CellTiter-Glo), MDA-MB-175VII. The note with it: 72 hours or 6 days. In kind it is cell-based, human. The protocol: as §3, §2

On to “XMT 1519-(EG2-MI-(10 kDa PHF-BA-(AF-HPA-Ala))) [Example 16E]”, for which the IC50 in experiment [1] is 8.8 nM; in [2] it was 0.06 nM; in experiment [3], 0.08 nM; in [4], 6.3 nM; in experiment [5], 22 nM; in experiment [6], 0.15 nM. Also, the IC50 was found to be 10.8 nM in experiment [7]; 4 nM in [8]; 2.7 nM in experiment [9]; 0.1 nM in experiment [10]; 4 nM in experiment [11]; 3.3 nM in [12]. Further, the IC50 in experiment [13] was 0.71 nM; in [14], 20 nM; in [15], 2.5 nM; in experiment [16], 2.4 nM; in [17], 1.7 nM; in experiment [18] it was 0.04 nM. The IC50 in experiment [19] came out at 1.2 nM; in experiment [20], 3.8 nM; in experiment [21] it was 5.2 nM; in experiment [22] it was 0.08 nM; in experiment [23], 0.3 nM.
